The chains behind the UniProt entries cited, without tags or fusion partners. Where a name states a change or a piece, a line headed by the entry shows the natural chain unless it says otherwise.
UniProt P08909: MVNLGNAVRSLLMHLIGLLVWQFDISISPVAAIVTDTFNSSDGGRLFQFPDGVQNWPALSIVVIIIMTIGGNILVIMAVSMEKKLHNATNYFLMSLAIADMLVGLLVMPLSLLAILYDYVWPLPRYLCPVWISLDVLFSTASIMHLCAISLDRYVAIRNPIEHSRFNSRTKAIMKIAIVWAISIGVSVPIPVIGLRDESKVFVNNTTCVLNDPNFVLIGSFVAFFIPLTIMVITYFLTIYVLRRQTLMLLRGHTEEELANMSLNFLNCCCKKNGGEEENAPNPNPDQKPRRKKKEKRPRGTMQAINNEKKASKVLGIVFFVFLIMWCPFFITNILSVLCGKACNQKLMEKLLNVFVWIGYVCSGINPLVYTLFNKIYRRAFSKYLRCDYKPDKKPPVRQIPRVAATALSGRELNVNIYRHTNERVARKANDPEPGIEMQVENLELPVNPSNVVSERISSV
UniProt P14842, whole entry: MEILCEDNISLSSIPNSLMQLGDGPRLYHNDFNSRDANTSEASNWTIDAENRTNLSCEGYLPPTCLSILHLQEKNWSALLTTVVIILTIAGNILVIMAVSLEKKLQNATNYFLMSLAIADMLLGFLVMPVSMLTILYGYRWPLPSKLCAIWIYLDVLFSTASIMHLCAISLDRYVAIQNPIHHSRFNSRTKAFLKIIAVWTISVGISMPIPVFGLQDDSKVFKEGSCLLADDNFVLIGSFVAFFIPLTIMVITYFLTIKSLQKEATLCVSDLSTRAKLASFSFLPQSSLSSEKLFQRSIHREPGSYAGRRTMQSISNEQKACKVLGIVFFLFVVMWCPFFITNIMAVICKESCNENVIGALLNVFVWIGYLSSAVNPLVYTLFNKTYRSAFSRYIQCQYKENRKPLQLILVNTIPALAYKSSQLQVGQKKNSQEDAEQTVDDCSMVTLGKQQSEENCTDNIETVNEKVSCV
UniProt P30994, whole entry: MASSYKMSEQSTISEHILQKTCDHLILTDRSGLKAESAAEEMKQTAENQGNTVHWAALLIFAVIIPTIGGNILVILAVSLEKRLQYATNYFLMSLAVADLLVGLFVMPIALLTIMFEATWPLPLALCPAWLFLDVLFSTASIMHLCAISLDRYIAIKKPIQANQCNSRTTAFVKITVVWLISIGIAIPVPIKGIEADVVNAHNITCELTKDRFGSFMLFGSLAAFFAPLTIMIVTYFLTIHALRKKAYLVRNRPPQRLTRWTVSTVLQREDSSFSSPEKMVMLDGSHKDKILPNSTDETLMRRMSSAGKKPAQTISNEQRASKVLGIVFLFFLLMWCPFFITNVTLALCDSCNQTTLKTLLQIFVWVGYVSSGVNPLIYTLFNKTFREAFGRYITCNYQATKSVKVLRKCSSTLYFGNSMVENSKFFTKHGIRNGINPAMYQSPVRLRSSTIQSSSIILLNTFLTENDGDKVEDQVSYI
UniProt P08908, whole entry: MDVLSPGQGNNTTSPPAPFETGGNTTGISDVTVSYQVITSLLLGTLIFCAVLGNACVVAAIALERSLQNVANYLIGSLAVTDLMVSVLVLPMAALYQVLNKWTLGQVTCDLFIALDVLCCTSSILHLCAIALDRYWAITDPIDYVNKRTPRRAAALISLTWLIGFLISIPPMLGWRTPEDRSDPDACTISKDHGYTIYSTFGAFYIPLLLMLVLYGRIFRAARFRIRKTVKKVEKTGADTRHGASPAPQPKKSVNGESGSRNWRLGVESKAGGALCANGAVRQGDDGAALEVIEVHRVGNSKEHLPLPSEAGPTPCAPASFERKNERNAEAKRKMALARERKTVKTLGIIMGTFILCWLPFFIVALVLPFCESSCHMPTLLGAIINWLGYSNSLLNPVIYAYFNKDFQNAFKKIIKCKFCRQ

In BindingDB's records for doi:10.1021/jm00065a015 (Smithkline Beecham Pharmaceuticals, 1993):

How the values were obtained:
[1] = biological target: Serotonin 2 (5-HT2) receptor (Rattus norvegicus, UniProt P08909+P14842+P30994)
[2] = biological target: 5-hydroxytryptamine receptor 1A (Homo sapiens, UniProt P08908)

Kd [1]: > 100 µM
Kd [2]: 3.16 µM
Compound: CNS(=O)(=O)Cc1ccc2[nH]cc(CCN(C)C)c2c1 [Sumax]
